Reference: ChEMBL document CHEMBL1629679, “Extended-spectrum cephalosporinases in Pseudomonas aeruginosa” (2009)

Assays:
[1] = substrate: CC1(C)S[C@@H]2[C@H](NC(=O)[C@H](N)c3ccc(O)cc3)C(=O)N2[C@H]1C(=O)O; test: (§1) Activity at Pseudomonas aeruginosa PDC-1 by spectrophotometer
[2] = substrate: CC1(C)S[C@@H]2[C@H](NC(=O)Cc3ccccc3)C(=O)N2[C@H]1C(=O)O; test: as §1
[3] = substrate: CO[C@@]1(NC(=O)Cc2cccs2)C(=O)N2C(C(=O)O)=C(COC(N)=O)CS[C@@H]21; test: as §1
[4] = substrate: CC(=O)OCC1=C(C(=O)O)N2C(=O)[C@@H](NC(=O)Cc3cccs3)[C@H]2SC1; test: as §1
[5] = substrate: CC1(C)S[C@@H]2[C@H](NC(=O)[C@H](N)c3ccc(O)cc3)C(=O)N2[C@H]1C(=O)O; test: (§2) Ratio of Kcat to Km for Pseudomonas aeruginosa PDC-1 by spectrophotometer
[6] = substrate: CO[C@@]1(NC(=O)Cc2cccs2)C(=O)N2C(C(=O)O)=C(COC(N)=O)CS[C@@H]21; test: as §2
[7] = substrate: CC(=O)OCC1=C(C(=O)O)N2C(=O)[C@@H](NC(=O)Cc3cccs3)[C@H]2SC1; test: as §2
[8] = substrate: CC1(C)S[C@@H]2[C@H](NC(=O)[C@H](N)c3ccc(O)cc3)C(=O)N2[C@H]1C(=O)O; test: (§3) Activity at Pseudomonas aeruginosa PDC-5 by spectrophotometer
[9] = substrate: CO/N=C(\C(=O)N[C@@H]1C(=O)N2C(C(=O)[O-])=C(C[N+]3(C)CCCC3)CS[C@H]12)c1csc(N)n1; test: as §3
[10] = substrate: CO[C@@]1(NC(=O)Cc2cccs2)C(=O)N2C(C(=O)O)=C(COC(N)=O)CS[C@@H]21; test: as §3
[11] = substrate: CC(=O)OCC1=C(C(=O)O)N2C(=O)[C@@H](NC(=O)Cc3cccs3)[C@H]2SC1; test: as §3
[12] = substrate: CC1(C)S[C@@H]2[C@H](NC(=O)[C@H](N)c3ccc(O)cc3)C(=O)N2[C@H]1C(=O)O; test: (§4) Ratio of Kcat to Km for Pseudomonas aeruginosa PDC-5 by spectrophotometer
[13] = substrate: CO/N=C(\C(=O)N[C@@H]1C(=O)N2C(C(=O)[O-])=C(C[N+]3(C)CCCC3)CS[C@H]12)c1csc(N)n1; test: as §4
[14] = substrate: CO[C@@]1(NC(=O)Cc2cccs2)C(=O)N2C(C(=O)O)=C(COC(N)=O)CS[C@@H]21; test: as §4
[15] = substrate: CC(=O)OCC1=C(C(=O)O)N2C(=O)[C@@H](NC(=O)Cc3cccs3)[C@H]2SC1; test: as §4

B1: Beta-lactamase (Pseudomonas aeruginosa (strain ATCC 15692 / PAO1 / 1C / PRS 101 / LMG12228)), P24735 (protein)
chain: MRDTRFPCLCGIAASTLLFATTPAIAGEAPADRLKALVDAAVQPVMKANDIPGLAVAISLKGEPHYFSYGLASKEDGRRVTPETLFEIGSVSKTFTATLAGYALTQDKMRLDDRASQHWPALQGSRFDGISLLDLATYTAGGLPLQFPDSVQKDQAQIRDYYRQWQPTYAPGSQRLYSNPSIGLFGYLAARSLGQPFERLMEQQVFPALGLEQTHLDVPEAALAQYAQGYGKDDRPLRVGPGPLDAEGYGVKTSAADLLRFVDANLHPERLDRPWAQALDATHRGYYKVGDMTQGLGWEAYDWPISLKRLQAGNSTPMALQPHRIARLPAPQALEGQRLLNKTGSTNGFGAYVAFVPGRDLGLVILANRNYPNAERVKIAYAILSGLEQQGKVPLKR
B1 gave a Km [1] of 20 µM, a kcat [1] of 0.5 s⁻¹ and a kcat [2] of 15 s⁻¹. It also gave a Km [3] of 0.5 µM, a kcat [3] of 0.015 s⁻¹ and a Km [4] of 85 µM. The kcat [4] was 44 s⁻¹, the kcat/Km [5] was 2.5e+07 M⁻¹ s⁻¹ and the kcat/Km [6] was 3e+07 M⁻¹ s⁻¹. For the same protein, the kcat/Km [7] was 5.1e+08 M⁻¹ s⁻¹.

B2: Beta-lactamase (Pseudomonas aeruginosa), Q8RL90 (protein)
chain: B1 chain with R79Q, T105A
B2 was tested, and the Km [8] was 30 µM, the kcat [8] was 2.5 s⁻¹ and the kcat [9] was 2.5 s⁻¹. The Km [10] was 0.5 µM, the kcat [10] was 0.08 s⁻¹ and the Km [11] was 50 µM. For the same protein, the kcat [11] was 115 s⁻¹, the kcat/Km [12] was 8e+07 M⁻¹ s⁻¹ and the kcat/Km [13] was 1.5e+06 M⁻¹ s⁻¹. The kcat/Km [14] was 1.6e+08 M⁻¹ s⁻¹ and the kcat/Km [15] was 2.3e+09 M⁻¹ s⁻¹.

Substitutions are numbered along the chain they refer to.
